Experimental data as given in publication PMC9857240, “The Nuclear Transporter Importin 13 Can Regulate Stress-Induced Cell Death through the Clusterin/KU70 Axis” (Cells, 2023).

Molecular target: T1, biotinylated GST-IPO13 (UniProt Q8K0C1 1-963, biotinylated)
T1 construct: Importin 13; also called pGEX4T2-IPO13; source: E. coli BL21, purified (glutathione agarose beads), biotinylated
T1 sequence (looked up): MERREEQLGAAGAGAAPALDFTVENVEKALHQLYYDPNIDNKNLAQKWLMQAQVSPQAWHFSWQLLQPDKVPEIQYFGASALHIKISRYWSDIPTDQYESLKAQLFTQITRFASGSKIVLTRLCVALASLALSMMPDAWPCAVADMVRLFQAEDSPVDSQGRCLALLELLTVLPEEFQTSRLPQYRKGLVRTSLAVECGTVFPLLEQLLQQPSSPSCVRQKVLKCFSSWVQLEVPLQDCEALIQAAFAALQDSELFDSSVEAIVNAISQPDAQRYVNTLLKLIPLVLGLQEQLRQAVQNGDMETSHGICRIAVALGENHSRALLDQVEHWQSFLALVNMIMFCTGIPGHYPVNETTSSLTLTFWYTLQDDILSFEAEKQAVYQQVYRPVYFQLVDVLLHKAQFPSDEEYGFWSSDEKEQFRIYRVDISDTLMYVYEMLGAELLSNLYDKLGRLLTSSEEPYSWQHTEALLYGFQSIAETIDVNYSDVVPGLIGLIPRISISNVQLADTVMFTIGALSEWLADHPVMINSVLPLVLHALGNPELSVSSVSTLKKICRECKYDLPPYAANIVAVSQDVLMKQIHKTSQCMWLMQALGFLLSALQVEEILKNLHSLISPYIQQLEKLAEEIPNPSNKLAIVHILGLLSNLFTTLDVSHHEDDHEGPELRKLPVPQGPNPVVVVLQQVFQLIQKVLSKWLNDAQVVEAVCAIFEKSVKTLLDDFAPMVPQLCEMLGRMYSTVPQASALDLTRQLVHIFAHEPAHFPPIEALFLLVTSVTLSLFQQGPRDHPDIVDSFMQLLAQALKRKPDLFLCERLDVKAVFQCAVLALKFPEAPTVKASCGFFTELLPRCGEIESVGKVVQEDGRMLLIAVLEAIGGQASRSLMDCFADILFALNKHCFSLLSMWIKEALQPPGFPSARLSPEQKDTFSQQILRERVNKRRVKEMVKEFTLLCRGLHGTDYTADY
Experiment: AlphaScreen or HTRF; 30 nM His6-GFP fusion protein with 0-60 nM biotinylated GST-IPO13; triplicates, sigmoidal association curves
Details: both partners purified

Kd: 7.3 nM
B1: His6-GFP-KU70 (natural protein, UniProt P12956 1-609, looked up)
chain: MSGWESYYKTEGDEEAEEEQEENLEASGDYKYSGRDSLIFLVDASKAMFESQSEDELTPFDMSIQCIQSVYISKIISSDRDLLAVVFYGTEKDKNSVNFKNIYVLQELDNPGAKRILELDQFKGQQGQKRFQDMMGHGSDYSLSEVLWVCANLFSDVQFKMSHKRIMLFTNEDNPHGNDSAKASRARTKAGDLRDTGIFLDLMHLKKPGGFDISLFYRDIISIAEDEDLRVHFEESSKLEDLLRKVRAKETRKRALSRLKLKLNKDIVISVGIYNLVQKALKPPPIKLYRETNEPVKTKTRTFNTSTGGLLLPSDTKRSQIYGSRQIILEKEETEELKRFDDPGLMLMGFKPLVLLKKHHYLRPSLFVYPEESLVIGSSTLFSALLIKCLEKEVAALCRYTPRRNIPPYFVALVPQEEELDDQKIQVTPPGFQLVFLPFADDKRKMPFTEKIMATPEQVGKMKAIVEKLRFTYRSDSFENPVLQQHFRNLEALALDLMEPEQAVDLTLPKVEAMNKRLGSLVDEFKELVYPPDYNPEGKVTKRKHDNEGSGSKRPKVEYSEEELKTHISKGTLGKFTVPMLKEACRAYGLKSGLKKQELLEALTKHFQD
notes: KU70 (XRCC6), PCR-amplified from pentr322-KU70, via pDONR207 into pGFP-attC; also called His6-tagged GFP-KU70; source: E. coli BL21 pRep4, purified (Ni-NTA under 8 M urea, renatured on the column, size exclusion FPLC)
